Source: patent publication US10351558B2, “Factor IXa inhibitors” (Merck Sharp & Dohme Corp., priority 2015, dated 2019)
Structures can show the parent of a compound that is named as a salt.

The chains behind the UniProt entries cited, without tags or fusion partners. Residues count along the entry.
UniProt P00740, 227-461: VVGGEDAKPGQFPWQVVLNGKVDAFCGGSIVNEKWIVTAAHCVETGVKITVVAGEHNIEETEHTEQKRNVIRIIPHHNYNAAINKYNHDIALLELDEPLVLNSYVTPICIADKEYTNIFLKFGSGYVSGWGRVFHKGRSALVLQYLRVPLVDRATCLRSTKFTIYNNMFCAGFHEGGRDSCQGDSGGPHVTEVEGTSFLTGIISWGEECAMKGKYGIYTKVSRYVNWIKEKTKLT
UniProt P00740, 47-191 partner: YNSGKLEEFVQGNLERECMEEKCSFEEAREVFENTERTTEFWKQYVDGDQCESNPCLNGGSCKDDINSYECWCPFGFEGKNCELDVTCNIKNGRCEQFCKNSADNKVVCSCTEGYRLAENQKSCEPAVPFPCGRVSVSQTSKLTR

target: hFIXa (Homo sapiens (Human), UniProt P00740); test: Determination of inhibitory activity against Factor IXa (cleavage of fluorescent peptide CH3SO2-D-CHG-Gly-Arg-AFC); assay type: biochemical

IC50 | Structure (SMILES)
10.2 nM | CNC(=O)c1ccc2ncn(-c3ccc(C(=O)N[C@]4(C)CCc5nc6cc(C)ccc6n5C4)c(Cl)c3)c2c1 [Example 89]
16 nM | Cc1ccc2c3c(nn2c1)CCC(NC(=O)c1ccc(-n2cnc(C)n2)cc1Cl)(c1ccc(F)c(F)c1)C3 (centres unmarked) [Example 29]
2.63 nM | Cc1ccc2c3c(nn2c1)CCC(NC(=O)c1ccc(-n2cnc(C)n2)cc1Cl)(c1cccc(Cl)c1)C3 (centres unmarked) [Example 28]
3.65 nM | Cc1cc(O)c2c3c(nn2c1)CCC(NC(=O)c1c(Cl)cc(-n2cnnc2)cc1Cl)(c1ccccc1)C3 (centres unmarked) [Example 30]
11.2 nM | Cc1ccc2c3c([nH]c2c1)CCC(NC(=O)c1ccc(-n2cnnc2C)cc1Cl)(c1cccc(F)c1)C3 (centres unmarked) [Example 110]
2.38 nM | Cc1ccc(O)c2c3c(nn12)CC[C@@](C)(NC(=O)c1ccc(-n2cnc4ccc(C(N)=O)cc42)cc1Cl)C3 [Example 22]
15.8 nM | Cc1ccc2c(c1)c(C(N)C(=O)O)c1n2C[C@@](NC(=O)c2ccc(-n3cnnc3)cc2Cl)(c2ccccc2)CC1 (stereo partly drawn) [Example 167, 2-amino-2-((S)-7-(2-chloro-4-(4H-1,2,4-triazol-4-yl)benzamido)-2-methyl-7-phenyl-6,7,8,9-tetrahydropyrido[1,2-a]indol-10-yl)acetic acid]
4.21 nM | Cc1ccc2c(c1)nc1n2CC(NC(=O)c2ccc(-n3cnnc3)cc2Cl)(c2cccc(F)c2)CC1 (centres unmarked) [Example 69]
4.7 nM | Cc1ccc2c3c([nH]c2c1)CCC(NC(=O)c1c(Cl)cc(-n2cnnc2)cc1Cl)(c1cccc(F)c1)C3 (centres unmarked) [Example 113]
0.82 nM | Cc1ccc2c(c1)c(/C=C/C(=O)O)c1n2C[C@@](NC(=O)c2ccc(-n3cnnc3)cc2Cl)(c2ccccc2)CC1 [Example 160, (S,E)-3-(7-(2-chloro-4-(4H-1,2,4-triazol-4-yl)benzamido)-2-methyl-7-phenyl-6,7,8,9-tetrahydropyrido[1,2-a]indol-10-yl)acrylic acid]
7.26 nM | Cc1ccc2c(c1)nc1n2C[C@@](NC(=O)c2ccc(-n3cnnc3)cc2Cl)(c2cccc(C(F)(F)F)c2)CC1 [Example 103]
2.03 nM | Cc1ccc2c(c1)c(/C=C/C(N)=O)c1n2C[C@@](NC(=O)c2ccc(-n3cnnc3)cc2Cl)(c2ccccc2)CC1 [Example 157]
3.74 nM | Cc1ccc2c(c1)c(-c1noc(C)n1)c1n2C[C@@](NC(=O)c2ccc(-n3cnnc3)cc2Cl)(c2ccccc2)CC1 [Example 178]
6.43 nM | Cc1ccc2c3c([nH]c2c1)CCC(NC(=O)c1ccc(-n2cnnc2C)cc1Cl)(c1cccc(Cl)c1)C3 (centres unmarked) [Example 112]
16.3 nM | Cc1ccc2c3c(nn2c1)CCC(C)(NC(=O)c1c(Cl)cc(-n2cc(CCO)nn2)cc1Cl)C3 (centres unmarked) [Example 11]
4.29 nM | Cc1ccc2c(c1)c(/C=N/O)c1n2C[C@@](NC(=O)c2ccc(-n3cnc(C)n3)cc2Cl)(c2ccccc2)CC1 [Example 145]
2.38 nM | Cc1ccc2c(c1)c(-c1nnn[nH]1)c1n2C[C@@](NC(=O)c2ccc(-n3cnnc3)cc2Cl)(c2ccccc2)CC1 [Example 156, (S)-2-chloro-N-(2-methyl-7-phenyl-10-(1H-tetrazol-5-yl)-6,7,8,9-tetrahydropyrido[1,2-a]indol-7-yl)-4-(4H-1,2,4-triazol-4-yl)benzamide, TFA]
8.59 nM | Cc1ccc2c3c(n(CC(=O)O)c2c1)CC[C@](NC(=O)c1ccc(-n2cnc(C)n2)cc1Cl)(c1cccc(F)c1)C3 [Example 118]

The remaining lines, values behind:

Structure (SMILES) | IC50
Cc1ccc2c(c1)c(C(N)=O)c1n2C[C@@](NC(=O)c2ccc(-n3cnnc3)cc2)(c2ccccc2)CC1 [Example 127] | 2.64 nM
Cc1ccc2c(c1)nc1n2C[C@@](NC(=O)c2ccc(-n3cnc(C)n3)cc2Cl)(c2ccccc2)CC1F (some centres unmarked) [Example 80] | 9.14 nM
Cc1cc(O)c2c3c(nn2c1)CCC(NC(=O)c1ccc(-n2cnnc2)cc1Cl)(c1ccccc1)C3 (centres unmarked) [Example 8, 2-Chloro-N-(10-hydroxy-8-methyl-2-phenyl-1,2,3,4-tetrahydropyrido[1,2-b]indazol-2-yl)-4-(4H-1,2,4-triazol-4-yl)benzamide] | 9.79 nM
Cc1ccc2c(c1)c([C@H](O)C(F)(F)F)c1n2C[C@@](NC(=O)c2ccc(-n3cnnc3)cc2Cl)(c2ccccc2)CC1 [Example 194, 2-chloro-N-(2-methyl-7-phenyl-10-((S)-2,2,2-trifluoro-1-hydroxyethyl)-6,7,8,9-tetrahydropyrido[1,2-a]indol-7-yl)-4-(4H-1,2,4-triazol-4-yl)benzamide] | 5.55 nM
Cc1cc2nc3n(c2cc1F)C[C@@](NC(=O)c1ccc(-n2cnnc2)cc1Cl)(c1ccccc1)CC3 [Example 68] | 12.7 nM
Cc1cc2nc3n(c2cc1Cl)C[C@@](NC(=O)c1ccc(-n2cnnc2)cc1Cl)(c1ccccc1)CC3 [Example 83] | 4.79 nM
Cc1ccc2c(c1)nc1n2C[C@@](NC(=O)c2ccc(-n3cc(CCO)nn3)cc2Cl)(c2ccccc2)CC1 [Example 90] | 8.83 nM
Cc1ccc2c(c1)c(-c1ncn[nH]1)c1n2C[C@@](NC(=O)c2ccc(-n3cnnc3)cc2Cl)(c2ccccc2)CC1 [Example 154] | 14.7 nM
Cc1ccc2c(c1)c(-c1cncc(C(C)(C)O)c1)c1n2C[C@@](NC(=O)c2ccc(-n3cnnc3)cc2Cl)(c2ccccc2)CC1 [Example 213] | 4.37 nM
COc1ccncc1-c1c2n(c3ccc(C)cc13)C[C@@](NC(=O)c1ccc(-n3cnnc3)cc1Cl)(c1ccccc1)CC2 [Example 201] | 14.9 nM
Cc1ccc2c(c1)c(-c1cncc(F)c1)c1n2C[C@@](NC(=O)c2ccc(-n3cnnc3)cc2Cl)(c2ccccc2)CC1 [Example 191] | 5.17 nM
Cc1ccc2c3c(n(CCC(=O)O)c2c1)CC[C@](NC(=O)c1c(Cl)cc(-n2cnc(C)n2)cc1Cl)(c1cccc(F)c1)C3 [Example 122] | 11.7 nM
Cc1ccc2c(c1)nc1n2CC(NC(=O)c2ccc(-n3cnc(C)n3)cc2Cl)(c2cccc(F)c2)CC1 (centres unmarked) [Example 81] | 8.2 nM
COc1cc2ncn(-c3ccc(C(=O)NC4(C)CCc5nn6cc(C)ccc6c5C4)c(Cl)c3)c2cc1OC (centres unmarked) [Example 26, 2-Chloro-4-(5,6-dimethoxy-1H-benzo[d]imidazol-1-yl)-N-(2,8-dimethyl-1,2,3,4-tetrahydropyrido[1,2-b]indazol-2-yl)benzamide] | 3.56 nM
Cc1ccc2c(c1)nc1n2C[C@@](NC(=O)c2c(Cl)cc(-n3cnnc3)cc2Cl)(c2ccccc2)CC1 [Example 82] | 4.03 nM
Cc1ccc2c(c1)nc1n2CC(NC(=O)c2ccc(-n3cnnc3)cc2Cl)(c2cccc(F)c2)CO1 (centres unmarked) [Example 215, 2-chloro-N-[3-(3-fluorophenyl)-8-methyl-3,4-dihydro-2H-[1,3]oxazino[3,2-a]benzimidazol-3-yl]-4-(4H-1,2,4-triazol-4-yl)benzamide] | 6840 nM
CCc1ccc2c(c1)nc1n2CC(NC(=O)c2ccc(-n3cnnc3)cc2Cl)(c2ccccc2)CC1 (centres unmarked) [Example 63] | 18.9 nM
Cc1ccc2c3c([nH]c2c1)C[C@@H]1CC[C@H]3[C@@H]1NC(=O)c1ccc(-n2cnnc2)cc1Cl [Example 107, 2-chloro-N-((7S,10R,11R)-3-methyl-5,6,7,8,9,10-hexahydro-7,10-methanocyclohepta[b]indol-11-yl)-4-(4H-1,2,4-triazol-4-yl)benzamide] | 54.3 nM
COc1cncc(-c2c3n(c4ccc(C)cc24)C[C@@](NC(=O)c2ccc(-n4cnnc4)cc2Cl)(c2ccccc2)CC3)c1 [Example 198] | 3.27 nM

Structure (SMILES) | IC50
Cc1ccc2c(c1)c(-c1cncc(N)c1)c1n2C[C@@](NC(=O)c2ccc(-n3cnnc3)cc2Cl)(c2ccccc2)CC1 [Example 189] | 1.58 nM
Cc1ccc2c(c1)nc1n2C[C@@](NC(=O)c2ccc(-n3cnc(C)n3)cc2Cl)(c2cccnc2)CC1 [Example 66] | 17.7 nM
Cc1cc(O)c2c3c(nn2c1)CCC(NC(=O)c1c(C)cc(-n2cnnc2)cc1Cl)(c1ccccc1)C3 (centres unmarked) [Example 15] | 4.81 nM
Cc1ccc2c(c1)nc1n2C[C@@](NC(=O)c2ccc(-n3cnc(C)n3)cc2Cl)(c2ccc3ccccc3c2)CC1 [Example 101] | 16.2 nM
Cc1ncn(-c2cc(Cl)c(C(=O)NC3(c4cccc(Cl)c4)CCc4nn5cc(F)ccc5c4C3)c(Cl)c2)n1 (centres unmarked) [Example 49] | 17.3 nM
COC(=O)c1c2n(c3ccc(C)cc13)C[C@@](NC(=O)c1ccc(-n3cnc(C)n3)cc1Cl)(c1ccccc1)CC2 [Example 165] | 6.96 nM
Cc1ccc2c(c1)cc1n2C[C@](C)(NC(=O)c2ccc(-n3cnnc3)cc2Cl)CC1 [Example 124] | 136 nM
Cc1ccc2c(c1)c(C#N)c1n2C[C@@](NC(=O)c2ccc(-n3cnnc3)cc2Cl)(c2ccccc2)CC1 [Example 132] | 5.11 nM
Cc1ccc2c(c1)nc1n2C[C@@](NC(=O)c2ccc(-n3cncn3)cc2Cl)(c2ccccc2)CC1 [Example 58] | 12.9 nM
O=C(N[C@]1(c2ccccc2)CCc2nc3ccc4cn[nH]c4c3n2C1)c1ccc(-n2cnnc2)cc1Cl [Example 73] | 6.35 nM
Cc1ccc2c(c1)c(C(=O)O)c1n2C[C@@](NC(=O)c2ccc(-n3cnnc3C)cc2Cl)(c2ccccc2)CC1 [Example 150] | 1.6 nM
Cc1ccc2c(c1)c(-c1cnc(N)nc1)c1n2C[C@@](NC(=O)c2ccc(-n3cnnc3)cc2Cl)(c2ccccc2)CC1 [Example 190] | 7.11 nM
Cc1ccc2c(c1)c(-c1cncc(C#N)c1)c1n2CC(NC(=O)c2ccc(-n3cnnc3)cc2Cl)(c2ccccc2)CC1 (centres unmarked) [Example 196] | 11.9 nM
COc1cc(-n2cnnc2C)ccc1C(=O)N[C@]1(c2ccccc2)CCc2c(C(=O)O)c3cc(C)ccc3n2C1 [Example 142] | 5.05 nM
Cc1ccc2c(c1)c(/C=C/C(=O)O)c1n2C[C@@](NC(=O)c2ccc(-n3cnc(C)n3)cc2Cl)(c2ccccc2)CC1 [Example 182] | 1.18 nM
Cc1ccc2c3c(nn2c1)CCC(CO)(NC(=O)c1c(Cl)cc(-n2cnn(C)c2=O)cc1Cl)C3 (centres unmarked) [Example 12] | 7.1 nM
Cc1ccc(O)c2c3c(nn12)CC[C@@](C)(NC(=O)c1ccc(-n2cnc4ccc(C(=O)O)cc42)cc1Cl)C3 [Example 25] | 4.88 nM
Cc1ccc2c(c1)c(C1CC1)c1n2C[C@@](NC(=O)c2ccc(-n3cnnc3C)cc2Cl)(c2ccccc2)CC1 [Example 143] | 9.81 nM
COc1cc(-n2cnc(C)n2)ccc1C(=O)N[C@]1(c2ccccc2)CCc2c(C(=O)O)c3cc(C)ccc3n2C1 [Example 141] | 4.15 nM
